{"source": "patent US20220175771A1", "about": "“CANCER TREATMENT MODALITIES” (priority 2017, published 2022)", "system": "SMARCA2/SMARCA4 dual-loss lung cancer cell lines", "conditions": "in vitro, 14 days of treatment; compared with lung cancer cell lines with other SWI/SNF aberrations", "data": [{"smiles": "CCN(c1cc(-c2ccc(CN3CCOCC3)cc2)cc(C(=O)NCc2c(C)cc(C)[nH]c2=O)c1C)C1CCOCC1", "note": "[Compound 44, tazemetostat]", "values": [{"measurement": "sensitivity to EZH2 inhibition (cell proliferation)", "result": "more sensitive"}]}]}
